# Measured affinities in a library of Ab-14 light chain variants

From the AlphaSeq antibody data of Engelhart et al. 2022 (doi:10.1038/s41597-022-01779-4), copy in the FLAb collection.

Antigen: PDVDLGDISGINAS, a 14-residue peptide of the SARS-CoV-2 spike HR2 region.

Ab-14 is the parent antibody, in scFv form: VH, then a 15-residue (Gly4Ser)3 linker, then VL. The heavy chain is unchanged in all variants.
VH: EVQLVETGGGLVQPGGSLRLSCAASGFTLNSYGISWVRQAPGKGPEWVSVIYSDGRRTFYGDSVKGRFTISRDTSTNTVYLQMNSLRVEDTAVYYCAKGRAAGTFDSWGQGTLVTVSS
VL: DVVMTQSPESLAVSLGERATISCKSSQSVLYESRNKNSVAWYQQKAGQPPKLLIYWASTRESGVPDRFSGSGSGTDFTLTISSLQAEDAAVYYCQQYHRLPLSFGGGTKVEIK

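AAYL50 was designed without a model: most single CDR substitutions and a random sample of double and triple ones. Affinity was read by AlphaSeq, a pooled yeast mating assay with surface-displayed partners. After mating in shaken culture at 30 °C for 16 h, diploids were selected and their barcode pairs sequenced. Each replicate has its own calibration line, from reference interactions of the BCL2 family. Mating was done three times.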

Variants are written as CDR1, CDR2 and CDR3 of the light chain (limits as in the source). Parent: KSSQSVLYESRNKNSVA, WASTRES, QQYHRLPLS.
Affinities are written as log10 Kd with Kd in nM; a lower number is a better binder.
The mean shown is taken over the replicates in which the pair was detected.
"nd" means that the variant was in the library but no mating with the target was seen in any replicate; the authors take this as a sign of poor binding, and no number exists.
Order: sorted from the lowest average up, undetected variants last.
Parent in this assay: reference entry 0.65, copy in this library 1.68.

For KSSQSVLYESRNKNSVA, GASTRNS, QQYHRLPLS, the assay gave 0.32 (3 of 3 replicates; controls 5 of 9).
For KSAQSVLYESGNKNSVA, MASTRES, QQYHRLPLS, the assay gave 0.51 (3 of 3 replicates; controls 6 of 9).
For KLSQSVLYESRNKNSVA, WASTVRS, QQYHRLPLS, the assay gave 0.51 (3 of 3 replicates; controls 6 of 9).
For KSSQSVLQESRNCNSVA, WASTRES, QQMHRLPLS, the assay gave 0.63 (3 of 3 replicates; controls 0 of 9).
For KSNQSVPYESSNKNSVA, WASTRES, QQYHRLPLS, the assay gave 0.92 (3 of 3 replicates; controls 1 of 9).
For KSSQPVLYESRNKNSVA, WASTRES, QQYHRLALS, the assay gave 1.16 (3 of 3 replicates; controls 2 of 9).
For KSSQSVLYEPGNKNSVA, WASTRES, QQYHRDPLS, the assay gave 1.33 (3 of 3 replicates; controls 0 of 9).
For KSQQSVLYESRNKFSVA, WAMTRES, QQYHRLPLS, the assay gave 1.45 (3 of 3 replicates; controls 0 of 9).
For KSSQSVLTESRNKNSVA, WAQTRES, QQYHELPLS, the assay gave 1.62 (3 of 3 replicates; controls 1 of 9).
For KSSQSVLYESKNKNSVA, WASTRES, QQYHGLSLS, the assay gave 1.68 (3 of 3 replicates; controls 3 of 9).
For KRSQSVLHESINKNSVA, WASTRES, QQYHRLPLS, the assay gave 1.69 (3 of 3 replicates; controls 2 of 9).
For KVSQSVLYESRNKNEVA, WAGTRES, QQYHRLPLS, the assay gave 1.74 (3 of 3 replicates; controls 0 of 9).
For KSSQSVLYESRNKNGVA, WASTRES, QQYHKLPMS, the assay gave 1.82 (3 of 3 replicates; controls 1 of 9).
For KSSQSVLYESRNSNSVA, WASTRES, QQYHRNALS, the assay gave 1.84 (3 of 3 replicates; controls 0 of 9).
For KCSQSVLYESRNKNSVA, WAATRLS, QQYHRLPLS, the assay gave 1.92 (3 of 3 replicates; controls 0 of 9).
For KSSQVVLYESRMKNSVA, WASTREY, QQYHRLPLS, the assay gave 1.99 (3 of 3 replicates; controls 1 of 9).
For KSSQSVLYESRNKNSVA, WKDTRES, QQYHRLPLS, the assay gave 2.03 (3 of 3 replicates; controls 1 of 9).
For KSSDSVLYESRNKNSVA, WASTRGS, QQYHRLPLS, the assay gave 2.88 (3 of 3 replicates; controls 1 of 9).
For KSSQSVLIESRNKNSVA, LASTRES, QQYHRLPLN, the assay gave 2.93 (3 of 3 replicates; controls 2 of 9).
For KSSQSPLYESRNKNSNA, LASTRES, QQYHRLPLS, the assay gave 3.15 (1 of 3 replicates; controls 4 of 9).
For KSSQSVLYESHNKNSVT, WASTRES, QQYHRLPLS, the assay gave 3.31 (2 of 3 replicates; controls 0 of 9).
For ASSQSVLYESRNKNSVA, WASFRES, KQYHRLPLS, the assay gave 3.46 (3 of 3 replicates; controls 1 of 9).
For LSSQSVLYESMNKNSVA, WVSTRES, QQYHRLPLS, the assay gave 3.74 (3 of 3 replicates; controls 3 of 9).
For KSSQSVLHESRNKNYVA, WASTRPS, QQYHRLPLS, the assay gave 3.80 (1 of 3 replicates; controls 0 of 9).
For KSLQSVLYEQRNKNSVA, WASTRES, QNYHRLPLS, the assay gave 3.99 (1 of 3 replicates; controls 1 of 9).
For KSSQSVLYESRNKNSVA, WASVRTS, QQYHRLPMS, the assay gave 4.05 (2 of 3 replicates; controls 5 of 9).
For KSSQSVLYCSRNKNSGA, WASTRES, QQYHRDPLS, the assay gave 4.21 (1 of 3 replicates; controls 0 of 9).
For KSMQSVLYESDNKNSVA, GASTRES, QQYHRLPLS, the assay gave 4.31 (1 of 3 replicates; controls 1 of 9).
For KSCQSVLYESRNKNSVA, WASTRES, QQMHRLPNS, the assay gave 4.34 (3 of 3 replicates; controls 2 of 9).
For KSSQSVLYESRNKNSHA, AASTRNS, QQYHRLPLS, the assay gave 4.59 (1 of 3 replicates; controls 2 of 9).
For KSYQSVLYESRNKNSAA, WASTRES, QQQHRLPLS, the assay gave 4.68 (2 of 3 replicates; controls 1 of 9).
For KSSQSVLGESRNKNSVA, WFSTRES, QQDHRLPLS, the assay gave nd (0 of 3 replicates; controls 0 of 9).
For TSSQSVLYESRNKNSVA, WASTRER, QQYHRLQLS, the assay gave nd (0 of 3 replicates; controls 1 of 9).
For KSSQSVLYESRNANSEA, WASTREN, QQYHRLPLS, the assay gave nd (0 of 3 replicates; controls 1 of 9).
For KSSTSVLYESRNKNSVA, CASTRES, SQYHRLPLS, the assay gave nd (0 of 3 replicates; controls 0 of 9).
For KSSESVLYESRNKNSVA, WASTRES, QQYHREPIS, the assay gave nd (0 of 3 replicates; controls 1 of 9).
For KSSQSVLYESRNKNSWA, WASTCES, QQYHRLPTS, the assay gave nd (0 of 3 replicates; controls 0 of 9).
For KSSQSVLYESRNKNSVI, WASERES, CQYHRLPLS, the assay gave nd (0 of 3 replicates; controls 0 of 9).
For FSSQSVLYESRNKNSVA, WASPRES, QQYHRCPLS, the assay gave nd (0 of 3 replicates; controls 0 of 9).

6 of these entries, quoted again:

CDR-L1,CDR-L2,CDR-L3,"log10 Kd (nM), mean",seen in,signal with controls
KSQQSVLYESRNKFSVA,WAMTRES,QQYHRLPLS,1.45,3/3,0/9
KSSQVVLYESRMKNSVA,WASTREY,QQYHRLPLS,1.99,3/3,1/9
TSSQSVLYESRNKNSVA,WASTRER,QQYHRLQLS,nd,0/3,1/9
KSSQSVLYESHNKNSVT,WASTRES,QQYHRLPLS,3.31,2/3,0/9
KSSQSVLHESRNKNYVA,WASTRPS,QQYHRLPLS,3.80,1/3,0/9
KSYQSVLYESRNKNSAA,WASTRES,QQQHRLPLS,4.68,2/3,1/9

Three control strains display no target. For library AAYL50, 18% of the pairings with them gave a signal, with a median of 4.19 and one signal in twenty below 2.99, so weak values seen in few replicates may be background. Also given: how often the same scFv was detected with the empty control strains.